Data from PubChem BioAssay AID651699 (Sanford-Burnham Center for Chemical Genomics, 2012).
The entries are a selection whose mix differs from that of the whole data set. Activity calls are given as the source filed them. No stated cut-off is given here; in the data, active means inhibition above about 36%; inactive means the rest.

Chains of the proteins cited; added tags and fusions are not shown.
UniProt P61081, whole entry, looked up: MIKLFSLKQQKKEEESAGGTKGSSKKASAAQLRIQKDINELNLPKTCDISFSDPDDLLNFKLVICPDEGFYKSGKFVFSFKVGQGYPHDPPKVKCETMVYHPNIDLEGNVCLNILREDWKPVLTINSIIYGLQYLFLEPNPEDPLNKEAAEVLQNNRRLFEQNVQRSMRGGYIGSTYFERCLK
UniProt Q13564, whole entry, looked up: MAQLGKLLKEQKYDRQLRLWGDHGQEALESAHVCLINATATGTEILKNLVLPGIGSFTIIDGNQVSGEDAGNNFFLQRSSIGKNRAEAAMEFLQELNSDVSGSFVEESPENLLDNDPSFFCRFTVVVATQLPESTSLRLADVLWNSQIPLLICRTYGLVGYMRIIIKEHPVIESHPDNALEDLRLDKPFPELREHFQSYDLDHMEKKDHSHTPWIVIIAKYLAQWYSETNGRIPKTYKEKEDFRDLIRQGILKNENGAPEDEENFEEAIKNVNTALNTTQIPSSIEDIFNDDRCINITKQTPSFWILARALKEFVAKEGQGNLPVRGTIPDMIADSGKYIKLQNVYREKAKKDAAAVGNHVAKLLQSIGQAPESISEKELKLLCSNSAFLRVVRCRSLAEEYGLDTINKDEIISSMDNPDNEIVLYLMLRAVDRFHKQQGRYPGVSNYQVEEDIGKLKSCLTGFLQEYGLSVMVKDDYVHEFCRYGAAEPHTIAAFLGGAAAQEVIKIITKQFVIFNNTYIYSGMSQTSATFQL

target: NEDD8-conjugating enzyme Ubc12 (Homo sapiens) + NEDD8-activating enzyme E1 regulatory subunit (Homo sapiens) (UniProt P61081+Q13564); test: NEDD8 transfer onto cullin, blockade – biochemical, TR-FRET, uHTS, NAE and Ubc12, primary screen (AID 651699); conditions: TR-FRET cullin neddylation, at 25 µM, active compounds read high

SMILES | inhibition
CN1CCC(Nc2ccc(F)c(Cl)c2)CC1 | inactive: 2.95%
CCOc1ncccc1C(=O)NCC1(N2CCOCC2)CCCCC1 | inactive: -2.02%
CCCOc1ccc(C(=O)NCC2(N(C)C)CCCCC2)cc1 | inactive: -4.1%
O=c1[nH]c2ccccc2n1C1CCN(C(c2cc3ccccc3o2)c2nnnn2C2CCCC2)CC1 (centres undefined) | inactive: -23.4%
NN(c1ccccc1)C1CCN(CCc2ccccc2)CC1 | inactive: -1.08%
O=C(O)C1(Nc2ccccc2)CCN(Cc2ccccc2)CC1 | inactive: -9.6%
CC(C)(C)OC(=O)N1CCC(Nc2ccccc2)CC1 | inactive: 5.82%
CCC(CO)(C(=O)OC1CN2CCC1CC2)c1ccccc1 (centres undefined) | inactive: -0.39%
COc1cccc(C(=O)N(c2cc(C)cc(C)c2)C2CCN(C(=O)OC(C)(C)C)CC2)c1 | inactive: 1.31%
COc1cc(OC)cc(C(=O)NCC2(N3CCOCC3)CCCCC2)c1 | inactive: 3.84%
COc1cccc(C(c2nnnn2C2CCCC2)N2CCC(n3c(=O)[nH]c4ccccc43)CC2)c1OC (centres undefined) | inactive: 6.01%
CN1CCC(Nc2ccc(Cl)cc2)CC1 | inactive: 2.29%
O=c1[nH]c2ccccc2n1C1CCN(C(c2ccnc3ccccc23)c2nnnn2C2CCCCC2)CC1 (centres undefined) | inactive: -2.63%
COc1cc(OC)cc(C(=O)NCC2(N3CCCCC3)CCCCC2)c1 | inactive: 11.3%
CCC(c1nnnn1C1CCCCC1)N1CCC(n2c(=O)[nH]c3ccccc32)CC1 (centres undefined) | inactive: 4.28%
CC(=O)N(c1ccccc1)C1CCNCC1 | inactive: 9.18%
COc1cccc(C(c2nnnn2C2CCCCC2)N2CCC(n3c(=O)[nH]c4ccccc43)CC2)c1OC (centres undefined) | inactive: -6.69%
Cc1ccc(NC2(C#N)CCN(Cc3ccccc3)CC2)cc1 | inactive: 1.55%
Fc1ccccc1NC1CCN(Cc2ccccc2)CC1 | inactive: 0.57%
Cc1ccc(C(=O)NCC2(N3CCCCC3)CCCCC2)o1 | inactive: -0.1%
CC(C)(C)n1nnnc1C(c1ccnc2ccccc12)N1CCC(n2c(=O)[nH]c3ccccc32)CC1 (centres undefined) | inactive: 11.6%
CCN1CCC(Nc2cccc(F)c2)CC1 | inactive: 4.81%
COc1ccc(C(c2nnnn2C2CCCCC2)N2CCC(n3c(=O)[nH]c4ccccc43)CC2)cc1 (centres undefined) | inactive: 6.03%
Cc1ccccc1NC1(C#N)CCN(Cc2ccccc2)CC1 | inactive: -3.44%
Cn1c(=O)[nH]cc(N(CCCl)CCCl)c1=O | inactive: 0.83%
CN(C)c1ccc(C(=O)NCC2(N3CCCCC3)CCCCC2)cc1 | inactive: 2.39%
O=C(NCC1(N2CCCCC2)CCCCC1)c1ccco1 | inactive: -18.6%

SMILES | inhibition
CC(C)(C)OC(=O)N1CCC(N(C(=O)c2ccccc2)c2ccc(Cl)cc2)CC1 | inactive: -5.67%
N#Cc1ccc(C(=O)NCC2(N3CCCCC3)CCCCC2)cc1 | inactive: 0.54%
Cc1cc(N(CCCl)CCCl)ccc1C=O | inactive: -2.74%
O=c1[nH]c2ccccc2n1C1CCN(C(c2ccccc2)c2nnnn2C2CCCC2)CC1 (centres undefined) | inactive: -4.61%
CCCN1CCC(Nc2cc(OC)cc(OC)c2)CC1 | inactive: 17.4%
c1ccc(CN2CCC(Nc3ccccc3)CC2)cc1 | inactive: -1.95%
CN(C)C1(CNC(=O)c2cccc(C#N)c2)CCCCC1 | inactive: 0.12%
CC(C)(C)n1nnnc1C(c1cccc2ccccc12)N1CCC(n2c(=O)[nH]c3ccccc32)CC1 (centres undefined) | inactive: 3.67%
O=C(NCC1(N2CCOCC2)CCCCC1)c1cc(Br)ccc1Cl | inactive: 13.8%
COc1cc(C(=O)NCC2(N3CCOCC3)CCCCC2)cc(OC)c1C | inactive: -18.8%
CCCCn1nnnc1C(c1ccccc1)N1CCC(n2c(=O)[nH]c3ccccc32)CC1 (centres undefined) | inactive: -9.75%
O=c1[nH]c2ccccc2n1C1CCN(C(c2ccnc3ccccc23)c2nnnn2C2CCCC2)CC1 (centres undefined) | inactive: -8.68%
COc1ccc(C(=O)NCC2(N3CCOCC3)CCCCC2)cc1OC | inactive: -1.77%
O=c1[nH]c2ccccc2n1C1CCN(C(c2cccs2)c2nnnn2C2CCCCC2)CC1 (centres undefined) | inactive: -5.73%
N/C(=N\O)c1c(N)no[n+]1[O-] | inactive: -0.67%
COc1cccc(C(c2nnnn2C(C)(C)C)N2CCC(n3c(=O)[nH]c4ccccc43)CC2)c1OC (centres undefined) | inactive: -1.22%
CCOC(=O)N1CCC(Nc2ccc(C)cc2)CC1 | inactive: -6.48%
CCCCn1nnnc1C(c1cccc(OC)c1OC)N1CCC(n2c(=O)[nH]c3ccccc32)CC1 (centres undefined) | inactive: 3.77%
O=c1[nH]c2ccccc2n1C1CCN(C(c2cccs2)c2nnnn2C2CCCC2)CC1 (centres undefined) | inactive: -3.75%
O=C(OC1CN2CCC1CC2)C1c2ccccc2C=Cc2ccccc21 (centres undefined) | inactive: 24.2%
CN(C)c1cccc(C(=O)NCC2(N3CCCCC3)CCCCC2)c1 | inactive: 38.2%
COc1ccc(CN(CCCl)CCCl)cc1Cl | inactive: -8.38%
CCCCn1nnnc1C(c1ccccc1OC(F)(F)F)N1CCC(n2c(=O)[nH]c3ccccc32)CC1 (centres undefined) | inactive: 5%
CC(C)c1ccc(NC2CCN(C(=O)OC(C)(C)C)CC2)cc1 | inactive: -4.06%
CCCCn1nnnc1C(c1ccnc2ccccc12)N1CCC(n2c(=O)[nH]c3ccccc32)CC1 (centres undefined) | inactive: -19%
O=C(NCC1(N2CCOCC2)CCCCC1)c1cc(F)c(F)cc1Cl | inactive: -0.89%
CCC(c1nnnn1C(C)(C)C)N1CCC(n2c(=O)[nH]c3ccccc32)CC1 (centres undefined) | inactive: -1.38%
